# Reference: publication PMC7927569 (Journal of the American Chemical Society, 2020)
# Assay: Size exclusion chromatography
# Assay type: physicochemical
# Conditions: 1.0 mg/mL peptide, 50 mM Tris pH 7.4, 150 mM NaCl, Superdex 75 Increase 10/300
substance,measurement,value
H-DAEFRHDSGYEVHH-NH2 [peptide 2],"SEC elution volume, peak assigned to monomer",17.6 mL
